For series [1], the system named is CYP1A2. The conditions noted are these: hepatocytes.
For series [2], the system named is CYP1A2, CYP2B6 and CYP3A4 mRNA. Briefly: qRT-PCR of CYP mRNA levels in treated human hepatocytes. The conditions noted are these: same hepatocytes after treatment, changes corresponding to effects on enzymatic activities. It is filed as cell-based.
For series [3], the system named is CYP3A4. The following applies: hepatocytes.
For series [4], the system named is CYP2B6. The following applies: hepatocytes.

Regarding “IL-6: interlukin-6 (10 ng/mL), a known suppressor of human CYP3A4 (additional positive control)”, the CYP1A2 activity result in series [1] is reported as “anticipated decreases”. In series [2], the “levels of specific mRNAs (CYP1A2, CYP2B6, CYP3A4)” value is given as “expected corresponding changes”. The CYP3A4 activity entry in series [3] is on record as “anticipated decreases”. For the same substance, the CYP2B6 activity entry in series [4] was “anticipated decreases”.

For the substance lipopolysaccharides [LPS], the “levels of specific mRNAs (CYP1A2, CYP2B6, CYP3A4)” value in series [2] is listed as “expected corresponding changes”.

The values are drawn from patent US10648968B2, “In vitro test system to evaluate xenobiotics as immune-modulators of drug transport and metabolism in human hepatocytes” (XenoTech, LLC, priority 2011, dated 2020).
